Assays:
[1] = molecular target: T1, protein tyrosine phosphatase 1B (PTP1B, amino acid residues 1-321) (Homo sapiens, UniProt P18031); experiment: Inhibition constant determination for protein tyrosine phosphatase 1B (pNPP hydrolysis); format: biochemical; conditions: competitive Ki, pNPP substrate, +/− S.D.; read-out: Phosphatase Inhibition Constants (Kic) PTP1B
T1 construct: PTP1B, amino acid residues 1-321; made in house; host or cells: E. coli BL21 (DE3)
T1 sequence (P18031 1-321): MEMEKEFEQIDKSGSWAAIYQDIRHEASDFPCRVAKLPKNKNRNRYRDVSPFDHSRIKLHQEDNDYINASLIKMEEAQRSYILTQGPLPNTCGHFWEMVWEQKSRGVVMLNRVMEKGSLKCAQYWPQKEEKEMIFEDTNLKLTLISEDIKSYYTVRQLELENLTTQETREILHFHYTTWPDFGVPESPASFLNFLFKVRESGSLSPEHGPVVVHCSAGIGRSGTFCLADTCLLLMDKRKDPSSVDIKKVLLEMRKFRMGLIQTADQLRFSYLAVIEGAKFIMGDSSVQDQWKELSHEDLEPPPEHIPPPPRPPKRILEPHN

TC-PTP = molecular target: T2, TC-PTP (Homo sapiens, UniProt P17706); experiment: Inhibition constant determination, selectivity panel: TCPTP (pNPP hydrolysis); format: biochemical; conditions: from Kic values of Table 1
T2 construct: chromatography of TCPTP (amino acid residues 1-283) was on Q-Sepharose-FF
T2 sequence (P17706 1-283): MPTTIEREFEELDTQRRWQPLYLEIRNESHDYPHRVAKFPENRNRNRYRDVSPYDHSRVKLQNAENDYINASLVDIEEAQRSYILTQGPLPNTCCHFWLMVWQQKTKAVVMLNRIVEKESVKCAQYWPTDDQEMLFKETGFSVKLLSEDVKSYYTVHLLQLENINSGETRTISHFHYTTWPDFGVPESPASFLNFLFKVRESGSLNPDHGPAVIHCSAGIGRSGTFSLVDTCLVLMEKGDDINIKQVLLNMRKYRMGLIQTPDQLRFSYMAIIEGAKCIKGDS

| SMILES | Ki [1] | selective for PTP1B over TCPTP (TC-PTP) |
| --- | --- | --- |
| CCc1cc(C[C@H](NC(C)=O)C(=O)NCCCCOc2cccc(O)c2C(=O)OC)ccc1N(C(=O)C(=O)O)c1ccccc1C(=O)O [Example 13, Methyl 2-{4-[(N-acetyl-4-[(carboxycarbonyl)(2-carboxyphenyl)amino]-3-ethylphenylalanyl)amino]butoxy}-6-hydroxybenzoate] | 16 nM | at least 3 fold |
| CCC(CC(=O)O)N(C(=O)C(=O)O)c1ccc(C[C@H](NC(=O)OC(C)(C)C)C(=O)NCCCCOc2cccc(O)c2C(=O)OC)cc1 (stereo partly drawn) [Example 43, Methyl 2-(4-{[N-(tert-butoxycarbonyl)-4-{(carboxycarbonyl)[1-(carboxymethyl)propyl]amino}-L-phenylalanyl]amino}butoxy)-6-hydroxybenzoate] | 1300 nM |  |

— patent US20020169157A1, “Selective protein tyrosine phosphatatase inhibitors” (priority 2000, published 2002)
